Literature values, collected in patent US9789187B2, “Stable pharmaceutical composition for atherosclerosis” (Cadila Pharmaceuticals Limited, priority 2009, dated 2017).

Settings: co-administered drug raises simvastatin AUC; cited from earlier work

For Amlodepine, the “increase of AUC of simvastatin” value is listed as 30%.
